For one compound, Ki results are on record in BindingDB's records for doi:10.1021/jm960441m (Upjohn, 1997).

Structures are written as SMILES.

The assay has as its target T1, Dimer of Gag-Pol polyprotein [489-587] (Human immunodeficiency virus 1, UniProt P12497).
T1 construct: 489-587
The experiment in a line: Protease Inhibition Assay. The settings on record: pH 5; 22 °C. The text has this:
HIV-1 protease was purified and refolded from E. coli inclusion bodies. […] In the presence of HIV-l protease, the substrate is rapidly cleaved into two parts. The biotinylated amino terminal fragment binds to the avidin beads while the FITC-containing carboxy1 terminal fragment is removed through the membrane. […] The bound fluorescence is obtained by processing on an IDEXX Screen Machine. Determination of Ki values with this assay requires analysis under conditions in which substrate concentration resides substantially below Km and the inhibitor concentrations greatly exceeds the Ki value and the enzyme concentration.

The Ki is a measure of affinity in units of concentration, obtained from inhibition or displacement. `O=c1oc2c(c(O)c1[C@H](c1cccc(NS(=O)(=O)c3ccccc3)c1)C1CC1)CCCCCC2` [N-{3-[(S)-cyclopropyl({4-hydroxy-2-oxo-2H,5H,6H,7H,8H,9H,10H-cycloocta[b]pyran-3-yl})methyl]phenyl}benzenesulfonamide]: affinity was put at a Ki of 3.2 nM.
